Data from patent publication US9833431B2, “Pharmaceutical combinations for the treatment of cancer” (Pitney Pharmaceuticals Pty Limited, priority 2013, dated 2017).

Tests used:
HT-29 = format: cell-based; settings: HT29 cells; MPL 5 μM; 5-FU 20 μM, gemcitabine 0.5 μM, oxaliplatin 1 μM; 72 h; FIG. 27
Protocol: All cell lines described herein were purchased from ATCC. […] Control cultures were treated with ethanol alone.

HOSE = assay: SRB cytotoxicity assay, HOSE non-malignant control cells; settings: 72 h, concentrations as stated in the figure
A2780 = assay: SRB cytotoxicity / proliferation assay, A2780 cells; settings: 72 h

SMILES: O=c1[nH]cc(F)c(=O)[nH]1 [Fluorouracil]
- Interaction of the drug(s) with MPL (synergy), in words (HT-29): synergistic cytotoxicity

SMILES: O=C1[O][Pt]2([NH][C@@H]3CCCC[C@H]3[NH]2)[O]C1=O [Oxaliplatin]
- Interaction of the drug with MPL (synergy), in words (HOSE): relatively small yet synergistic interaction

SMILES: CO[C@@]12[C@H](COC(N)=O)C3=C(C(=O)C(C)=C(N)C3=O)N1C[C@@H]1N[C@@H]12 [mitomycin C]
- Interaction of the drug with MPL (synergy), in words (A2780; A2780 cells, concentrations as stated at the place or in the figure): effective enhancement

SMILES: CC(C)C[C@H](NC(=O)[C@H](Cc1ccccc1)NC(=O)c1cnccn1)B(O)O [Bortezomib]
- Synergistic cytotoxicity between MPL and combined drug (A2780; A2780 Ovarian, 5 μM MPL + drug, Table 7): ✓^2
